Data as given in patent publication US8124332B2, “Methods of using sIP-10, CD26 inhibitors and CXCR3 levels in a sample to assess clearance of infection, response to interferon therapy, and treating chronic infections” (Institut Pasteur, priority 2006, dated 2012).

Key:
[1] = system: CXCL10; assay: Plasma CXCL10 by parallel sandwich ELISA after first dose of peg-IFN-α2; format: in vivo, human; conditions: 6 hr following the initial dose; all in the agonist form
Excerpt: (§1) As a second test for the inventors' hypothesis, the inventors have developed an ‘in vivo-bioassay’ to evaluate the fate of CXCR3^+ cells in individuals who have high levels of plasma CXCL10. To the inventors' knowledge, there is no report that evaluated in vivo migration as a function of plasma chemokine expression while taking care to determine that the chemokine is in a bioactive form. To establish a positive control for the assay, blood samples were collected from chronic HCV patients during the initiation of their treatment with peg-IFN-α2/RBV. 6 hr following the initial dose of peg-IFN-α2, the inventors observed high levels of plasma CXCL10, all of which existed in the agonist form, based on detection with anti-CXCL10, antisera L3 (FIG. 13A). […] Based on the enumeration of T cells and the selective decrease in CXCR3^+ cells (FIG. 13C), the interpretation is that the IFN treatment results in agonist CXCL10 production and migration of the CXCR3^+ cells.
(§2) FIG. 13. Establishment of an ‘in vivo bio-assay’ for agonist activity of plasma CXCL10. Plasma and whole blood was collected from an HCV chronic patient prior to initiation of treatment and six hours after the first dose of IFNα2. The plasma was analyzed by parallel sandwich ELISA for detection of total CXCL10 (black) and agonist CXCL10 (red) (A). […]

[2] = system: CXCR3+ cells; assay: In vivo bio-assay: circulating CXCR3+ cells in chronic HCV patient after first dose of peg-IFN-α2; design: species or system human; conditions: 6 hr post-injection; 35% pre-treatment
Excerpt: as §1, §2

peg-IFN-α2: pegylated interferon α2 given to chronic HCV patients
plasma CXCL10 [1]: high levels | level of circulating CXCR3+ cells [2]: 2%
